US9320737B2, “Substituted imidazopyridazines” (Bayer Intellectual Property GmbH, priority 2011, dated 2016)

Chains of the proteins cited; added tags and fusions are not shown. A line that says so, or that is headed by a name, gives the form on record, which may keep a tag or linker.
UniProt Q9BUB5, other isoform, or with tags, fused parts or gaps T344D: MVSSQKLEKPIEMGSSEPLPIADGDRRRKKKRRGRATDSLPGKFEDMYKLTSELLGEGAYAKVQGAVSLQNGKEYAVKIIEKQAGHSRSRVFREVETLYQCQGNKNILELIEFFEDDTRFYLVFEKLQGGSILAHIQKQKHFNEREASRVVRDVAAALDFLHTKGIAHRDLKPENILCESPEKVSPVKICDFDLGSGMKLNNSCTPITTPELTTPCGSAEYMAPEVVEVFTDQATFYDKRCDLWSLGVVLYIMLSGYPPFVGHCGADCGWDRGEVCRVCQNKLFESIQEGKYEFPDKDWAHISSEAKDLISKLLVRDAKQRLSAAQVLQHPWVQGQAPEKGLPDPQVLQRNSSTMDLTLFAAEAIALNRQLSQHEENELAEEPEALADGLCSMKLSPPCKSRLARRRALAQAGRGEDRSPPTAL

target: human full-length MKNK1 (Homo sapiens (Human), UniProt Q9BUB5, T344D); assay: MKNK1 kinase assay (MKNK1 TR-FRET assay); type: biochemical; conditions: GST-MKNK1 (T344D), 10 μM ATP, average or median values
Description: MKNK1-inhibitory activity of compounds of the present invention was quantified employing the MKNK1 TR-FRET assay as described in the following paragraphs.
A recombinant fusion protein of Glutathione-S-Transferase (GST, N-terminally) and human full-length MKNK1 (amino acids 1-424 and T344D of accession number BAA 19885.1), expressed in insect cells using baculovirus expression system and purified via glutathione sepharose affinity chromatography, was purchased from Carna Biosciences (product no 02-145) and used as enzyme. As substrate for the kinase reaction the biotinylated peptide biotin-Ahx-[…] (C-terminus in amide form) was used which can be purchased e.g. form the company Biosyntan (Berlin-Buch, Germany).
For the assay […] of a 100 fold concentrated solution of the test compound in DMSO was pipetted into a black low volume 384 well microtiter plate (Greiner Bio-One, Frickenhausen, Germany), 2 μL of a solution of MKNK1 in aqueous assay buffer [50 mM HEPES pH 7.5, 5 mM magnesium chloride, 1.0 mM dithiothreitol, 0.005% (v/v) Nonidet-P40 (Sigma)] was added and the mixture was incubated for 15 min at 22° C. to allow pre-binding of the test compounds to the enzyme before the start of the kinase reaction. Then the kinase reaction was started by the addition of 3 μL of a solution of adenosine-tri-phosphate (ATP, 16.7 μM=>final conc. in the 5 μL assay volume is 10 μM) and substrate (0.1 μM=>final conc. in the 5 μL assay volume is 0.06 μM) in assay buffer and the resulting mixture was incubated for a reaction time of 45 min at 22° C. The concentration of MKNK1 was adjusted depending of the activity of the enzyme lot and was chosen appropriate to have the assay in the linear range, typical concentrations were in the range of 0.05 μg/ml. The reaction was stopped by the addition of 5 μL of a solution of TR-FRET detection reagents (5 nM streptavidine-XL665 [Cisbio Bioassays, Codolet, France] and 1 nM anti-ribosomal protein S6 (pSer236)-antibody from Invitrogen [#44921G] and 1 nM LANCE EU-W1024 labeled ProteinG [Perkin-Elmer, product no. AD0071]) in an aqueous EDTA-solution (100 mM EDTA, 0.1% (w/v) bovine serum albumin in 50 mM HEPES pH 7.5).
The resulting mixture was incubated for 1 h at 22° C. to allow the formation of complex between the phosphorylated biotinylated peptide and the detection reagents. Subsequently the amount of phosphorylated substrate was evaluated by measurement of the resonance energy transfer from the Eu-chelate to the streptavidine-XL. Therefore, the fluorescence emissions at 620 nm and 665 nm after excitation at 350 nm were measured in a TR-FRET reader, e.g. a Rubystar (BMG Labtechnologies, Offenburg, Germany) or a Viewlux (Perkin-Elmer). […]

| IC50 | SMILES |
| --- | --- |
| 10 nM | C[S+]([O-])CCOc1ccc2ncc(-c3cc4ccccc4o3)n2n1 (stereo not shown) [Example II.4, 3-(1-Benzofuran-2-yl)-6-[2-(methylsulfinyl)ethoxy]imidazo[1,2-b]pyridazine] |
| 2 nM | COc1cccc2oc(-c3cnc4ccc(OCCCS(C)(=N)=O)nn34)cc12 (stereo not shown) [Example IV.2, 3-(4-Methoxy-1-benzofuran-2-yl)-6-[3-(S-methylsulfonimidoyl)propoxy]imidazo-[1,2-b]pyridazine] |
| 13 nM | CS(=O)(CCCOc1ccc2ncc(-c3cc4ccccc4o3)n2n1)=NC(=O)C(F)(F)F (stereo not shown) [Example IV.3, N-[(3-{[3-(1-Benzofuran-2-yl)imidazo[1,2-b]pyridazin-6-yl]oxy}propyl)(methyl)oxido-lambda^6-sulfanylidene]-2,2,2-trifluoroacetamide] |

| SMILES | IC50 |
| --- | --- |
| CS(=N)(=O)CCCCOc1ccc2ncc(-c3cc4ccccc4o3)n2n1 (stereo not shown) [Example IV.6, 3-(1-Benzofuran-2-yl)-6-[4-(S-methylsulfonimidoyl)butoxy]imidazo[1,2-b]pyridazine] | 8 nM |
